In BindingDB's records for doi:10.1007/bf02311185 (Case Western Reserve University, 1995) one finds Ki data, which are given here for 1 compound.

By UniProt entry, the sequences of proteins in these tests, tags left out.
UniProt P14842, whole entry: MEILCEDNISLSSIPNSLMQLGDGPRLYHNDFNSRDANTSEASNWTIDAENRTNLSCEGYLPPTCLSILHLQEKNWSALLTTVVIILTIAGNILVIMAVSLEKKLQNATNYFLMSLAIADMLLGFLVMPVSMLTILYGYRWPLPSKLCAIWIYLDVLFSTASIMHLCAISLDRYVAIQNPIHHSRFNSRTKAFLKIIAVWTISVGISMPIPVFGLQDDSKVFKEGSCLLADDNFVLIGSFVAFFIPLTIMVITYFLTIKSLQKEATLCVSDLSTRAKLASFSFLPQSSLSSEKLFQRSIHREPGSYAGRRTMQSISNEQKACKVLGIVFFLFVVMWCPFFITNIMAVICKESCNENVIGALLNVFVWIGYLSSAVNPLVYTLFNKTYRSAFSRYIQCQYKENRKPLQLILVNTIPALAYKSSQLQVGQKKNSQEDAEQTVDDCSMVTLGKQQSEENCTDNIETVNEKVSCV

The test addresses 5-hydroxytryptamine receptor 2A (Rattus norvegicus, UniProt P14842).

Consider `Cc1cc2c(s1)=Nc1ccccc1NC=2N1CCN(C)CC1` [CAS_132539-06-1], for which the affinity corresponds to a Ki of 5.4 nM.
